In the assay the target is ΔF508-CFTR (Homo sapiens, UniProt P13569, DEL508-508). The assay is described as follows: Membrane potential optical assay (FRET/VIPR), identification of correction compounds. In kind it is cell-based. The text has this:
I) Membrane Potential Optical Methods for Assaying ΔF508-CFTR Modulation Properties of Compounds
The optical membrane potential assay utilized voltage-sensitive FRET sensors described by Gonzalez and Tsien (See, Gonzalez, J. E. and R. Y. Tsien (1995) “Voltage sensing by fluorescence resonance energy transfer in single cells” Biophys J 69(4): 1272-80, and Gonzalez, J. E. and R. Y. Tsien (1997) “Improved indicators of cell membrane potential that use fluorescence resonance energy transfer” Chem Biol 4(4): 269-77) in combination with instrumentation for measuring fluorescence changes such as the Voltage/Ion Probe Reader (VIPR) (See, Gonzalez, J. E., K. Oades, et al. (1999) “Cell-based assays and instrumentation for screening ion-channel targets” Drug Discov Today 4(9): 431-439).
These voltage sensitive assays are based on the change in fluorescence resonant energy transfer (FRET) between the membrane-soluble, voltage-sensitive dye, DiSBAC2(3), and a fluorescent phospholipid, CC2-DMPE, which is attached to the outer leaflet of the plasma membrane and acts as a FRET donor. […] The changes in fluorescence emission were monitored using VIPR™ II, which is an integrated liquid handler and fluorescent detector designed to conduct cell-based screens in 96- or 384-well microtiter plates. […]

Sequences of proteins named here, by UniProt entry; tags and fusion partners are left off. A change or cut given only in a name is not applied to a line headed by its entry. A line that says so, or that is headed by a name, gives the form on record, which may keep a tag or linker.
UniProt P13569, with tags, fused parts or gaps DEL508-508: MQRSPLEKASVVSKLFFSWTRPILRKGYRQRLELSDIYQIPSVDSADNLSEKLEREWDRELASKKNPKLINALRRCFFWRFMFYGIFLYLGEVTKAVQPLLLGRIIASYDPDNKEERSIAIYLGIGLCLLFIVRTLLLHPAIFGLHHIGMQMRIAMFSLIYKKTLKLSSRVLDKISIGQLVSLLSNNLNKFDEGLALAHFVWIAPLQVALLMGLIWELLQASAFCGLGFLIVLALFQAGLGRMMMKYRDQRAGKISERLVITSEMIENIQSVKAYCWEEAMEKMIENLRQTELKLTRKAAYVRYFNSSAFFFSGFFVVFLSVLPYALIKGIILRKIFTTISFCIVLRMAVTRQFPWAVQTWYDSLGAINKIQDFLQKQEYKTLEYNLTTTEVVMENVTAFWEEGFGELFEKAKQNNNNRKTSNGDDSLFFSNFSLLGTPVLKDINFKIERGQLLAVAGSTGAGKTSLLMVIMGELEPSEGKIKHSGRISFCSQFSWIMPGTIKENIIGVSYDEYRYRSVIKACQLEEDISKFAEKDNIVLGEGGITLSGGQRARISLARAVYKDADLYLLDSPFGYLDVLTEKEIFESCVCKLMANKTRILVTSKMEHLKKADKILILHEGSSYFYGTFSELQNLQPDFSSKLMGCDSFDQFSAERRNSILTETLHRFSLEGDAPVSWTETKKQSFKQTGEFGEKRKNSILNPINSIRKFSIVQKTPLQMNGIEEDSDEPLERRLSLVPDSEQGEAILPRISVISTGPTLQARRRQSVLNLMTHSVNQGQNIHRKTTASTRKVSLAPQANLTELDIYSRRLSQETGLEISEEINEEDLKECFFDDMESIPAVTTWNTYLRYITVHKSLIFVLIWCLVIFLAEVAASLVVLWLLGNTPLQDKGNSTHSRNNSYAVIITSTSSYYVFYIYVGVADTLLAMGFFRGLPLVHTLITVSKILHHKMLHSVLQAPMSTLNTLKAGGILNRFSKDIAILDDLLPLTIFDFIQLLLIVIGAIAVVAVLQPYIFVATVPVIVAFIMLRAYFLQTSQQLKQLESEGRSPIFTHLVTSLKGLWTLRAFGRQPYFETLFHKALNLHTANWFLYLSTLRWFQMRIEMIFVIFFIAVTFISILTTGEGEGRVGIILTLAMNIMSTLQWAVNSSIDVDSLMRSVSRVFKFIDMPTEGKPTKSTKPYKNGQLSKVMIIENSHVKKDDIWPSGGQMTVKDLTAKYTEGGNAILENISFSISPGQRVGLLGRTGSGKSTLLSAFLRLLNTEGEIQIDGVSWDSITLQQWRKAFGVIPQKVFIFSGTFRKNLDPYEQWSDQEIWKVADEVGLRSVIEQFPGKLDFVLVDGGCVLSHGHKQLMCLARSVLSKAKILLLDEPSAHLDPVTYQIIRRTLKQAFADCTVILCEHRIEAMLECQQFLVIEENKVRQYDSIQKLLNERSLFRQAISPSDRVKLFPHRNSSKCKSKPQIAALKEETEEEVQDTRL

Structures are written as SMILES.

The values that follow come from patent publication US8642609B2, “Modulators of ATP-binding cassette transporters” (Vertex Pharmaceuticals Incorporated, priority 2003, dated 2014).

In the case of `CC(c1nc2ccccc2c(=O)n1C)N1CCC2(CC1)C(=O)NCN2c1ccccc1` (centres unmarked), the half-maximal effective concentration (EC50) was 25 to 60 µM. Further, the “% Efficacy” value (relative efficacy) is given as “++ (“++” means between 25% to 100%)”.
